The values that follow are results of earlier work, collected in PMC5495814, “The impact of the butterfly effect on human parainfluenza virus haemagglutinin-neuraminidase inhibitor design” (Scientific Reports, 2017).

Amino acid sequences for entries named in this document (tags omitted). A change or cut given only in a name is not applied to a line headed by its entry.
UniProt P08492: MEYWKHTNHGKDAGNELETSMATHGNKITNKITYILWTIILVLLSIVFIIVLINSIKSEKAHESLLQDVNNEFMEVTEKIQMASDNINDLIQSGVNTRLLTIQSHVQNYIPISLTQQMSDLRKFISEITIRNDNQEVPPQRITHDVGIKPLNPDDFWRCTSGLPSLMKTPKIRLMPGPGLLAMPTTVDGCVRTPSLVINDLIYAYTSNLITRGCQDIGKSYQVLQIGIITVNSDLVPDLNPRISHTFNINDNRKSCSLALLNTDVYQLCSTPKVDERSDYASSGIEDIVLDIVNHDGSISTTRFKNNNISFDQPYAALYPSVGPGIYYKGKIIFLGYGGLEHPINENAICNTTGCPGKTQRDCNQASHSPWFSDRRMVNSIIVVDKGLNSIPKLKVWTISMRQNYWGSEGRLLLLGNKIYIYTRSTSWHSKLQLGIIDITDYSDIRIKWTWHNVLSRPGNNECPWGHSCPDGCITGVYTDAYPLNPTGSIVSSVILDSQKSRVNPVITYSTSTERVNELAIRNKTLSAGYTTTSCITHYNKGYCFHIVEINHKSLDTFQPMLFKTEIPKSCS

This series addresses hPIV-3 HN haemagglutinin function (Human parainfluenza 3 virus, UniProt P08492). Conditions: read-out: HI IC50; recently reported 2,3-difluoro-N-acylneuraminic acid; cited from earlier work.

As a reminder, the IC50 is the point on the concentration scale where inhibition reaches its midpoint. For the substance 2,3-difluoro-N-acylneuraminic acid, the IC50 was 1000 µM.
